Molecular target: Dopamine receptor
Experiment: In vitro inhibition of [3H]spiperone binding to Dopamine receptor D2 in Macaca nemestrina striatal membranes
Parameters: species or system Striatum, Membrane
Outline: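 Caudate tissue from adult Macaca nemestrina brains, homogenized in ice-cold 50 mM potassium phosphate pH 7.4, washed twice by centrifugation at 30000g and stored at -70 °C. Assay used 25-50 µg protein in 50 mM Tris-HCl, 120 mM NaCl, 5 mM CaCl2, 1 mM MgCl2, pH 7.4, with 0.2 nM [3H]spiperone for 30 min at 37 °C. Bound ligand was collected by filtration and counted by scintillation. Nonspecific binding was defined with 1 µM cis-flupenthixol. Ki was taken from competitive displacement.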

SMILES: CCN1CCC[C@H]1CNC(=O)c1c(O)c(Cl)cc(Cl)c1OC [RACLOPRIDE]
- Ki: 8.7 nM
